Entries after “also recorded” stand apart in the source; their conditions may differ.
Assays:
[1] = system: APJ oligomers (APJ-Rluc, APJ-VN173, APJ-VC155); test: BiFC-BRET, effect of agonist/antagonist treatment on APJ oligomerization; type: cell-based, human; details: CHO cells co-expressing APJ-Rluc, concentration not given, four independent experiments in triplicate
Description: Additionally, BiFC-BRET assays were performed to detect APJ oligomerization in living cells. Two non-fluorescent fragments (pCE-BiFC-VN173 and pCE-BiFC-VC155) of Venus fluorescent protein were separately fused to APJ (APJ-VN173 and APJ-VC155) (Fig. 4A). CHO cells were then co-transfected with APJ-Rluc, APJ-VN173, and APJ-VC155 and observed with TIRFM.
Figure 4 Assessment of apelin receptor (APJ) oligomerization with bioluminescence resonance energy transfer - bimolecular fluorescence complementation (BiFC-BRET). (A) Principle of BiFC-BRET. The assay examines the formation of functional Venus by the complementation of protein fragments fused to APJ. Association of APJ enables formation of a bimolecular fluorescent complex. If all three tagged APJ proteins interact, BRET can occur. (B) TIRFM detection of APJ dimers (yellow particles) after BiFC. (C) Assessment of APJ oligomerization with BiFC-BRET. (D) Assessment of agonist-induced oligomerization.

By UniProt entry, the sequences of proteins in these tests, tags left out. Where a name states a change or a piece, a line headed by the entry shows the natural chain unless it says otherwise.
UniProt P35414: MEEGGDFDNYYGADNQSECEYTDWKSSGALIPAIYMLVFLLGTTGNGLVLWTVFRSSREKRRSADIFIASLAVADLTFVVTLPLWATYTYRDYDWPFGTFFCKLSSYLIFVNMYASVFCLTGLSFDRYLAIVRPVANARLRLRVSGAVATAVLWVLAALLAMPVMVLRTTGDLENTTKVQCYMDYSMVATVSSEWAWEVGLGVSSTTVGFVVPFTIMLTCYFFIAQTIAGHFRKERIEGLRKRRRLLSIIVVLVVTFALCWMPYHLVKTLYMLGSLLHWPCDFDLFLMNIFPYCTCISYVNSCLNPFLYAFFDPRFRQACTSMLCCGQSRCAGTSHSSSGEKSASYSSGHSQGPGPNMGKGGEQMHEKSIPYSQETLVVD

APJ = APJ (Homo sapiens, UniProt P35414); details: xCELLigence RTCA, apelin-13 0 to 100 uM; average of quadruplicate treatments
[2] = system: human umbilical vein endothelial cells (HUVECs); test: xCELLigence RTCA, apelin-13-induced cellular response (cell index) with or without interference peptide; type: cell-based
Description: All curves were plotted as the average of quadruplicate treatments, with error bars shown as SEM.
A background step (step 1) was performed before other experimental steps. The background step was performed with each well of the E-Plate 16 containing only culture media (100 μl/well) for 30 min at 37 °C, prior to the addition of 10000 HUVECs per well (100 μl/well). […] The schedule settings were as follows (RTCA Software 2.0): […]

APJ monomers = APJ monomers (Homo sapiens, UniProt P35414); details: CHO cells, 1 μM apelin-13

Substance	BRET ratio versus unstimulated cells (APJ oligomerization, BiFC-BRET) [1]	concentration for maximal effect (APJ)	HUVEC cell index (CI) after apelin-13 alone ([2]; apelin-13 10 μM, 0.1 μM, 1 nM, 10000 HUVECs per well, average of quadruplicates)	duration of transient increase in HUVEC CI after apelin-13 ([2]; apelin-13 stimulation of HUVECs) [h]	G protein activation, Gα12 (APJ monomers; APJ monomers)	G protein activation, Gα13 (APJ monomers; APJ monomers)	G protein activation, Gαi1 (APJ monomers; APJ monomers)	G protein activation, Gαi2 (APJ monomers; APJ monomers)	G protein activation, Gαi3 (APJ monomers; APJ monomers)	G protein activation, Gαo (APJ monomers; APJ monomers)	G protein activation, Gαq (APJ monomers; APJ monomers)	G protein activation, Gαs (APJ monomers; APJ monomers)	time to maximum BRET increase (APJ monomers; positive controls Gα-Rluc8 and APJ-Venus, for Gαi1, Gαi2, Gαi3, Gαq and Gαo)
[Ala13]apelin-13	the same as that of unstimulated cells												
apelin-13	the same as that of unstimulated cells	10^−6 M	elicited a further increase in the HUVEC cell index (CI); also recorded: a transient increase in HUVEC CI	2 to 3	not Gαs and Gα12	activate	activate	activate	activate	activate	activate	not Gαs and Gα12	~ 5 min

Reference: PMC5238433 (Scientific Reports, 2017)
